Usually IC50 stands for the midpoint of a concentration-inhibition curve.

Amino acid sequences for entries named in this document (tags omitted). A change or cut given only in a name is not applied to a line headed by its entry.
UniProt P25779: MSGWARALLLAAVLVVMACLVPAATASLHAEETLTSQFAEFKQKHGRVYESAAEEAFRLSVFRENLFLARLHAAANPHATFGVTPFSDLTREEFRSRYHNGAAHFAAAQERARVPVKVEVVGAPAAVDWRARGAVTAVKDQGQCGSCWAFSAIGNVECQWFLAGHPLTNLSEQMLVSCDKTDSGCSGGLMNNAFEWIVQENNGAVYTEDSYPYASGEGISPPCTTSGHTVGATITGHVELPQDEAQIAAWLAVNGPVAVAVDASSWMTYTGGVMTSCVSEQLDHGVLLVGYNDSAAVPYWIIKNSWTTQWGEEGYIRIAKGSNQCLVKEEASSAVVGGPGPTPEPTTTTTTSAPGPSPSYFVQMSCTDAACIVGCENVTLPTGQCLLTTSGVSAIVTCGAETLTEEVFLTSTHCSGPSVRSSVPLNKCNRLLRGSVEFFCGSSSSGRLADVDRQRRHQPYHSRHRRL

Test [1] deals with T1, Cruzipain (Trypanosoma cruzi, UniProt P25779). As to the kind of experiment: Inhibition of recombinant Trypanosoma cruzi Cruzipain using Z-FR-AMC as substrate preincubated for 20 mins followed by substrate addition and measured for 45 mins by fluorescence analysis.
Test [2] deals with T1, Cruzipain. Description: Inhibition of recombinant Trypanosoma cruzi Cruzipain using Z-Phe-Arg-AMC as substrate preincubated for 5 mins followed by substrate addition by spectrofluorometry analysis.

Regarding `CC/C(=N\NC(N)=S)c1cccc(Br)c1`, the IC50 in test [1] and in test [2] was 176 nM each time.

Values taken from ChEMBL document CHEMBL5325419, “Design, synthesis and biological evaluation of novel thiosemicarbazones as cruzipain inhibitors” (Eur J Med Chem, 2023).
